From patent US11001569B2, “6-membered heteroaromatic substituted cyanoindoline derivatives as NIK inhibitors” (Janssen Pharmaceutica NV, priority 2016, dated 2021)

Amino acid sequences for entries named in this document (tags omitted).
UniProt Q99558, whole entry: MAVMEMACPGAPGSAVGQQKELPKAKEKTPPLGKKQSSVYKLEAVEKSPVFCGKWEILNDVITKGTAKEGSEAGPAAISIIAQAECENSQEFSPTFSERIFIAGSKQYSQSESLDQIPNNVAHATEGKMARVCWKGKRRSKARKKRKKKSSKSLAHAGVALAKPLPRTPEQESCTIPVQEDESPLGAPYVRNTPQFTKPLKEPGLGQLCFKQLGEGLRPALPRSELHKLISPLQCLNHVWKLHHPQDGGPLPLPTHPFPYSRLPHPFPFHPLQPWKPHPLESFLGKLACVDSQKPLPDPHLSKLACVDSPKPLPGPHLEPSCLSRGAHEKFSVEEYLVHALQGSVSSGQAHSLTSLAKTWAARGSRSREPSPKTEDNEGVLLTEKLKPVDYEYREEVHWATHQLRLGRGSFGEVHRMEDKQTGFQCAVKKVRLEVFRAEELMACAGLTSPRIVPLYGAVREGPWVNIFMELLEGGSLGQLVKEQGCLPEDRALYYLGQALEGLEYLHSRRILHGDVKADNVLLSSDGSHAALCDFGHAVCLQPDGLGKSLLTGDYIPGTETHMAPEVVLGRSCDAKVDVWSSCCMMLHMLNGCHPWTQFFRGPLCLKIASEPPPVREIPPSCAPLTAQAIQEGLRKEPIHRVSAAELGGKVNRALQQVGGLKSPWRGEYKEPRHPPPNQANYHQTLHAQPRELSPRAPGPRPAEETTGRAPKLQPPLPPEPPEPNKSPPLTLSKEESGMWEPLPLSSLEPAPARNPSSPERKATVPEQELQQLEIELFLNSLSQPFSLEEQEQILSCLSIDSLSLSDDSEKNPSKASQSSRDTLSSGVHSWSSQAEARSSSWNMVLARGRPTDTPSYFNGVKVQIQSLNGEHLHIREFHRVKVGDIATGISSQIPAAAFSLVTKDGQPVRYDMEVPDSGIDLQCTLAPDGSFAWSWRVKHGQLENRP

How the values were obtained:
[1] = tested on: JJN-3 (NIK translocated) multiple myeloma cells; experiment: Antiproliferative activity on JJN-3 multiple myeloma cells (CellTiter-Glo); details: read-out: JJN-3 Proliferation inhibition (IC50 (nM)), JJN-3 (NIK translocated) cells, 96 hr treatment, averaged values
[2] = molecular target: recombinant human NF-kappaB-inducing Kinase (NIK/MAP3K14) (Homo sapiens, UniProt Q99558); experiment: Inhibition of auto-phosphorylation of recombinant human NIK/MAP3K14 activity (AlphaScreen); details: read-out: Auto-phosphorylation inhibition of NIK (IC50 (nM)), 25 microM ATP, averaged over all measurements on all batches
[3] = tested on: KMS12-BM (NIK WT) multiple myeloma cells; experiment: Antiproliferative activity on KMS12-BM multiple myeloma cells (CellTiter-Glo); details: read-out: KMS-12 Proliferation inhibition (IC50 (nM)), 96 hr treatment, averaged values

IC50 [1]: 1550 nM | IC50 [2]: 6.6 nM | IC50 [3]: 7240 nM
Structure (SMILES): CC(C)Oc1ncccc1Nc1nccc(-c2cc(C#N)c3c(c2)[C@@](C)(CO)CN3)n1
